Source: US20240279281A1, “Peptide Inhibitors of Interleukin-23 Receptor” (Janssen Pharmaceutica NV, priority 2023, published 2024)

Columns and labels:
IL-23R = molecular target: T1, IL-23R (Homo sapiens, UniProt Q5VWK5); test: IL23R Reporter Assay; assay type: cell-based; conditions: HEK293 cells containing IL-23R, IL-12Rβ1 and STAT-inducible luciferase reporter; 10 ng/mL IL-23; 5 h
T1 construct: host or cells: HEK293
T1 sequence (Q5VWK5 24-629): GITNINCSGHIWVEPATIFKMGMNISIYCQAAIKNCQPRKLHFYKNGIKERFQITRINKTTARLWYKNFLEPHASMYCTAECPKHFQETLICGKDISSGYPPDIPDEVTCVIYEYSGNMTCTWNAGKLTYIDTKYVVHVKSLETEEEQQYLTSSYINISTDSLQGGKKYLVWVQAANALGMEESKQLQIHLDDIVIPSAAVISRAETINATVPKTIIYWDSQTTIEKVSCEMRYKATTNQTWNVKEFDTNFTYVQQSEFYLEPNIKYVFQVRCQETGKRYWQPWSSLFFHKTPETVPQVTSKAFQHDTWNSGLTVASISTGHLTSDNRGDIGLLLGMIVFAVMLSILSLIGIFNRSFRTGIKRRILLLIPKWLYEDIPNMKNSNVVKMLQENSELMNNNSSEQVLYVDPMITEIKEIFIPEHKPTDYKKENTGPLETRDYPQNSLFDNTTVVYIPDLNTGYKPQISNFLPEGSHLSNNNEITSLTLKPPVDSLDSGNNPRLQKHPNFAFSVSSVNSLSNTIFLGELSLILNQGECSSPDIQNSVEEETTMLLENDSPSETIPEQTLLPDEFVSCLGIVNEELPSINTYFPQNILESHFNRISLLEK
Protocol: Compounds were serially diluted in 100% (v/v) DMSO) and plated using an Echo acoustic dispenser (Labcyte) into 1536-well non-treated black assay plates (Corning #9146). 3 μL of HEK293 cells containing IL-23R, IL-12Rβ1 and a firefly luciferase reporter gene driven by a STAT-inducible promoter (Promega) were added to the plates (4000 cells/well), followed by 3 μL of 10 ng/mL IL-23 (equivalent to EC90 concentration). After 5 h at 37° C., 5% CO2, 95% relative humidity, cells were placed at 20° C. and treated with BioGlo reagent (Promega) according to the Manufacturer's instructions. Luminescence was measured on a Pherastar FSX (BMG LabTech). Data were normalized to IL-23 treatment (0% inhibition) and 30 μM of control inhibitor (100% inhibition), and IC50 values were determined using a 4-parameter Hill equation.

[1] = molecular target: T2, IL-23-stimulated phosphorylated STAT3 in peripheral blood mononuclear cells (PBMCs) (Homo sapiens, UniProt Q5VWK5); test: PBMC pSTAT3 Assay; assay type: cell-based; conditions: read-out: PBMC pSTAT3 IC50, PBMCs from healthy donors, IL-23 5 ng/mL, 30 minutes
T2 sequence (Q5VWK5 24-629): T1 sequence (Q5VWK5 24-629)
Protocol: Cryopreserved peripheral blood mononuclear cells (PBMCs) from healthy donors were thawed and washed twice in ImmunoCult-XF T cell expansion medium (XF-TCEM) supplemented with CTL anti-aggregate wash. The cells were counted, resuspended at 2-6×10^5 cells per mL XF-TCEM supplemented with penicillin/streptomycin and 100 ng/mL IL-1β (BioLegend, 579404), and cultured in tissue culture flasks coated with anti-CD3 (eBioscience, 16-0037-85 or BD Pharmingen, 555329) at 37° C. in 5% CO2. On day 4 of culture, PBMCs were collected, washed twice in RPMI-1640 supplemented with 0.1% BSA (RPMI-BSA), and incubated in RPMI-BSA in upright tissue culture flasks for ˜4 hours at 37° C. in 5% CO2. Following this ‘starvation,’ a total of 6×10^4 cells in 30 μL RPMI-BSA was transferred into each well of a 384-well plate pre-spotted with peptide or DMSO. The cells were incubated for 30 minutes prior to the addition of IL-23 at a final concentration of 5 ng/mL. The cells were stimulated with cytokine for 30 minutes at 37° C. in 5% CO2, transferred onto ice for 10 minutes, and lysed. Cell lysates were stored at −80° C. until phosphorylated STAT3 was measured using the phospho-STAT panel kit (Meso Scale Discovery, K15202D).

Substance | IC50 (IL-23R) [nM] | IC50 [1] [nM]
MeCO-r-Pen(3)-N-T-7MeW-K(Ac)-Pen(3)-AEF-6OH2Nal-THP-E-N-3Pya-Sar-CONH2 [SEQ ID NO: 442] | < 10 | < 0.01
PEG2NMe(2)-Pen(3)-N-T-7MeW-K(NMeAc)-Pen(3)-AEF-6OH2Nal-THP-hE(2)-N-3Pya-Sar-CONH2 [compound 358] | < 10 | < 0.01
